This is an account of results in ChEMBL document CHEMBL1151884, “Nuclease resistant methylphosphonate-DNA/LNA chimeric oligonucleotides” (2009).

In assay [1] the test system is Nucleic Acid. In words: Binding affinity to DNA assessed as change in melting temperature in presence of 30 mM NaCl.
The subject of assay [2] is Nucleic Acid. The assay can be described thus: Binding affinity to DNA assessed as change in melting temperature in presence of 120 mM NaCl.
In assay [3] the test system is Nucleic Acid. In words: Binding affinity to RNA assessed as change in melting temperature in presence of 120 mM NaCl.
The test system of assay [4] is Nucleic Acid. The assay can be described thus: Binding affinity to RNA assessed as change in melting temperature in presence of 30 mM NaCl.

As a reminder, the ΔTm is the change in melting temperature against a reference sample. Consider `Cc1cn([C@H]2C[C@H](OP(=O)(O)OC[C@H]3O[C@@H](n4cnc5c(=O)[nH]c(N)nc54)C[C@@H]3OP(=O)(O)OC[C@H]3O[C@@H](n4ccc(N)nc4=O)C[C@@H]3O)[C@@H](COP(C)(=O)O[C@H]3C[C@H](n4cnc5c(N)ncnc54)O[C@@H]3COP(=O)(O)O[C@H]3C[C@H](n4cc(C)c(=O)[nH]c4=O)O[C@@H]3COP(=O)(O)O[C@H]3C[C@H](n4cnc5c(N)ncnc54)O[C@@H]3COP(C)(=O)O[C@H]3C[C@H](n4cnc5c(=O)[nH]c(N)nc54)O[C@@H]3COP(=O)(O)O[C@H]3C[C@H](n4cc(C)c(=O)[nH]c4=O)O[C@@H]3COP(=O)(O)O[C@H]3C[C@H](n4cnc5c(=O)[nH]c(N)nc54)O[C@@H]3CO)O2)c(=O)[nH]c1=O` (stereo partly drawn), for which the ΔTm in the assay with Nucleic Acid [1] is 1 °C; in the assay with Nucleic Acid [2], -2 °C; in the assay on Nucleic Acid [3], -5 °C.

For the compound `Cc1cn([C@@H]2O[C@@]3(COP(C)(=O)O[C@H]4C[C@H](n5cnc6c(N)ncnc65)O[C@@H]4COP(=O)(O)O[C@H]4[C@H]5OC[C@]4(COP(=O)(O)O[C@H]4C[C@H](n6cnc7c(N)ncnc76)O[C@@H]4COP(C)(=O)O[C@H]4C[C@H](n6cnc7c(=O)[nH]c(N)nc76)O[C@@H]4COP(=O)(O)O[C@H]4[C@H]6OC[C@]4(COP(=O)(O)O[C@H]4C[C@H](n7cnc8c(=O)[nH]c(N)nc87)O[C@@H]4CO)O[C@H]6n4cc(C)c(=O)[nH]c4=O)O[C@H]5n4cc(C)c(=O)[nH]c4=O)CO[C@@H]2[C@@H]3OP(=O)(O)OC[C@H]2O[C@@H](n3cnc4c(=O)[nH]c(N)nc43)C[C@@H]2OP(=O)(O)OC[C@H]2O[C@@H](n3ccc(N)nc3=O)C[C@@H]2O)c(=O)[nH]c1=O` (stereo partly drawn), the ΔTm was 13 °C with Nucleic Acid [1], 23 °C in the assay with Nucleic Acid [4], 10 °C in the assay with Nucleic Acid [2] and 20 °C in the assay on Nucleic Acid [3].

`Cc1cn([C@H]2C[C@H](OP(=O)(O)OC[C@H]3O[C@@H](n4cnc5c(N)ncnc54)C[C@@H]3OP(C)(=O)OC[C@H]3O[C@@H](n4cc(C)c(=O)[nH]c4=O)C[C@@H]3OP(=O)(O)OC[C@H]3O[C@@H](n4cnc5c(=O)[nH]c(N)nc54)C[C@@H]3OP(C)(=O)OC[C@H]3O[C@@H](n4ccc(N)nc4=O)C[C@@H]3O)[C@@H](COP(C)(=O)O[C@H]3C[C@H](n4cnc5c(N)ncnc54)O[C@@H]3COP(C)(=O)O[C@H]3C[C@H](n4cnc5c(=O)[nH]c(N)nc54)O[C@@H]3COP(=O)(O)O[C@H]3C[C@H](n4cc(C)c(=O)[nH]c4=O)O[C@@H]3COP(C)(=O)O[C@H]3C[C@H](n4cnc5c(=O)[nH]c(N)nc54)O[C@@H]3CO)O2)c(=O)[nH]c1=O` (stereo partly drawn): the ΔTm was 4 °C in the assay with Nucleic Acid [1] and -4 °C in the assay with Nucleic Acid [2].

As to `Cc1cn([C@@H]2O[C@@]3(COP(C)(=O)O[C@H]4C[C@H](n5cnc6c(N)ncnc65)O[C@@H]4COP(C)(=O)O[C@H]4C[C@H](n5cnc6c(=O)[nH]c(N)nc65)O[C@@H]4COP(=O)(O)O[C@H]4[C@H]5OC[C@]4(COP(C)(=O)O[C@H]4C[C@H](n6cnc7c(=O)[nH]c(N)nc76)O[C@@H]4CO)O[C@H]5n4cc(C)c(=O)[nH]c4=O)CO[C@@H]2[C@@H]3OP(=O)(O)OC[C@H]2O[C@@H](n3cnc4c(N)ncnc43)C[C@@H]2OP(C)(=O)OC[C@@]23CO[C@@H]([C@H](n4cc(C)c(=O)[nH]c4=O)O2)[C@@H]3OP(=O)(O)OC[C@H]2O[C@@H](n3cnc4c(=O)[nH]c(N)nc43)C[C@@H]2OP(C)(=O)OC[C@H]2O[C@@H](n3ccc(N)nc3=O)C[C@@H]2O)c(=O)[nH]c1=O` (stereo partly drawn), the ΔTm was found to be 14 °C with Nucleic Acid [1], 17 °C with Nucleic Acid [4], 5 °C in the assay with Nucleic Acid [2] and 13 °C in the assay on Nucleic Acid [3].
